Laboratory results as given in US11168079B2, “Alkene compounds as farnesoid x receptor modulators” (BRISTOL-MYERS SQUIBB COMPANY, priority 2017, dated 2021).

Sequences of proteins named here, by UniProt entry; tags and fusion partners are left off. Residues count along the entry.
UniProt Q96RI1, 262-486 limits assumed: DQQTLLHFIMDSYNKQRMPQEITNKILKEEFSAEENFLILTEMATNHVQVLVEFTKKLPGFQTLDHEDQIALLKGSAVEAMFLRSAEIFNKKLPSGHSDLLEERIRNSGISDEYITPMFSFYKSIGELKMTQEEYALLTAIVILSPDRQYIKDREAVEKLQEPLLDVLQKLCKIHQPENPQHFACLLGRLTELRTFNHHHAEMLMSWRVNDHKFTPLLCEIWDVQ

Biological target: human FXR (Homo sapiens, UniProt Q96RI1)
Assay: transient human FXR/Gal4-luciferase reporter assay (HLE GAL-FXR)
Conditions: read-out: FXR EC50; Gal4-hFXR fusion reporter, HEK293 cells; Table 1

EC50 [nM] | Compound
1890 | COc1cc(C(=O)O)nc2ccc(N3CC4C(/C=C/c5c(-c6cccnc6C(F)(F)F)noc5C5CC5)C4C3)nc12 (stereo not drawn)
4 | O=C(O)c1cc(-c2ccc(N3CC(/C=C/c4c(-c5ccccc5C(F)(F)F)noc4C4CC4)C3)cn2)cc(C(F)(F)F)c1
29 | [2H]C([2H])([2H])Oc1cc(C(=O)O)nc2ccc(N3CC(/C=C/c4c(-c5ccccc5C(F)(F)F)noc4C4CC4)C3)cc12
74 | O=C(O)c1cc2ccc(N3CCC(/C=C/c4c(-c5ccccc5C(F)(F)F)noc4C4CC4)CC3)cc2cn1
21 | O=C(O)c1cc(C(F)(F)F)c2cc(N3CCC(/C=C/c4c(-c5cccnc5C(F)(F)F)noc4C4CC4)CC3)ccc2n1

Compound | EC50 [nM]
O=C(O)c1nn(CC2CC2)c2cc(N3CC4C(/C=C/c5c(-c6c(Cl)cccc6Cl)noc5C5CC5)C4C3)ccc12 (stereo not drawn) | 18
